{"source": "patent US12491252B2", "about": "“Substituted 3-amino-5-phenylbenzamide compounds as covalent inhibitors of enhancer zeste homolog 2 (EZH2) and proteolysis-targeting chimeric derivatives thereof (PROTACs) that induce degradation of EZH2” (Northwestern University, priority 2021, dated 2025)", "type_in_all_cases": "cell-based", "key": {"C4-2B cells [1]": {"test_system": "C4-2B cells", "assay": "Live imaging cell proliferation of C4-2B cells", "conditions": "FIG. 20A, monitored over 168 hours", "experimental": "FIG. 20A-20B. (FIG. 20A) Live imaging cell proliferation of C4-2B cells. Cells were treated with indicated compounds and monitored over 168 hours for proliferation by phase object confluence. DMSO is set as the negative control. […] (FIG. 20B) Colony assays using C4-2B cells after treatment with the indicated compounds for 7 days."}, "C4-2B cells [2]": {"test_system": "C4-2B cells", "assay": "WST cell proliferation assay in C4-2B cells", "conditions": "FIG. 22, 6 days", "experimental": "FIG. 22A-22B. WST cell proliferation assay of indicated compounds in C4-2B cells. Cells were treated for 6 days. […] (FIG. 19B) Effects of indicated compounds on EZH2, AR, and FOXA1 by western blot at 1 μM in C4-2B cells.\n(§1) Cell proliferation was measured using WST-1 Kit (Clontech) according to manufacturer's protocol."}, "LNCaP cells [3]": {"test_system": "LNCaP cells", "assay": "WST cell proliferation/viability assay in LNCaP cells", "conditions": "FIG. 19A, 6 days", "experimental": "FIG. 19A-19B. (FIG. 19A) WST cell proliferation assay of indicated compounds in LNCaP cells. […] (FIG. 19B) Effects of indicated compounds on EZH2, AR, and FOXA1 by western blot at 1 μM in LNCaP cells.\nFIG. 23. WST cell viability assay of EPZ-6438 (“EPZ”) and 6272 across a concentration range in LNCaP cells after 5 days' treatment.\nas §1"}, "LNCaP cells [4]": {"test_system": "LNCaP cells", "assay": "Live imaging cell proliferation of LNCaP cells", "conditions": "FIG. 17A, monitored over 168 hours", "experimental": "FIG. 17A-17B. (FIG. 17A) Live imaging cell proliferation of LNCaP cells. Cells were treated with indicated compounds and monitored over 168 hours for proliferation by phase object confluence. DMSO is set as the negative control. […] (FIG. 17B) Colony assays using LnCaP cells after treatment with the indicated compounds for 7 days."}}}
{"smiles": "CCN(c1cc(-c2ccc(CN3CCOCC3)cc2)cc(C(=O)NCc2c(C)cc(C)[nH]c2=O)c1C)C1CCOCC1", "note": "[EPZ-6438, reference compound]", "values": [{"measurement": "Cell proliferation by phase object confluence", "setting": "C4-2B cells [1]", "value": "significant effects"}, {"measurement": "Inhibition of proliferation (WST)", "setting": "C4-2B cells [2]", "value": "similarly potent effects on inhibiting the proliferation"}, {"measurement": "Inhibition of proliferation (WST)", "setting": "LNCaP cells [3]", "value": "similarly potent effects on inhibiting the proliferation"}, {"measurement": "Cell proliferation by phase object confluence", "setting": "LNCaP cells [4]", "value": "significant effects"}]}
